Ab-14 light chain CDR variants: yeast mating affinities

Values reported by Li et al. 2023, doi:10.1038/s41467-023-39022-2 (FLAb copy).

Target peptide (SARS-CoV-2 spike, HR2 region): PDVDLGDISGINAS

The variants keep the heavy chain, the linker and the frameworks of Ab-14 (scFv order VH, a 15-residue (Gly4Ser)3 linker, VL).
VH: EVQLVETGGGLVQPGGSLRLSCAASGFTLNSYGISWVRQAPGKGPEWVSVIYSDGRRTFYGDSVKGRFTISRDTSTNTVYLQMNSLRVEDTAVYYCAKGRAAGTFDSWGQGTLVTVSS
VL: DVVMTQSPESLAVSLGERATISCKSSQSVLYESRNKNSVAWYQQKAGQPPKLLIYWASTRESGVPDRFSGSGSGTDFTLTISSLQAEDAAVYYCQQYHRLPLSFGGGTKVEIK

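Phage display of a naive human antibody library on the peptide gave the parent. These sequences belong to a second round, designed from the earlier measurements on random variants of the parent. Their group label is 14L_GP_HC (GP: Gaussian process model; HC: hill climbing; a sequence that several methods proposed may carry one label only). The assay is AlphaSeq: two haploid yeast populations carry antibody and antigen on their surface. After mating in shaken culture at 30 °C for 16 h, diploids were selected and their barcode pairs sequenced. The ratio of observed to expected reads was calibrated, replicate by replicate, on BCL2-family standards whose Kd was known from biolayer interferometry. The assay was run in six technical replicates.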

Each variant is given by its three light chain CDRs, as the data file delimits them; those of the parent are KSSQSVLYESRNKNSVA, WASTRES, QQYHRLPLS.
Scale: log10 of Kd in nM, estimated from mating counts; low values are strong binders.
Averages over replicates are reported, and they cover detected replicates only.
"nd" means that the variant was in the library but no mating with the target was seen in that replicate; the authors take this as a sign of poor binding, and no number exists.
In the paper, a design with two or fewer of six values counts as a poor binder.
Values of this round are not directly comparable with the first-round values of the same sequences.
Background: pairings of all light chain designs with three empty control strains gave a value in 4% of cases (median 2.64, 5th percentile 1.59). Values in that range, when seen in few replicates, are hard to tell from nonspecific mating. Also given: how often the same scFv was detected with the empty control strains, with their mean in brackets.

CDR-L1	CDR-L2	CDR-L3	log10 Kd, replicates	log10 Kd (nM), mean	empty controls
KFSQSVLYESRNKNSVA	MASTRES	QAYHRLPLS	1.45 / 1.32 / 1.52 / 1.90 / 1.74 / 1.41	1.56	0/18
KLSQSELYESRWKNSVA	GASQRES	QQYHRLPLS	0.05 / 0.25 / 0.61 / 0.27 / 0.36 / 0.69	0.37	2/18 (4.03)
KSSQSGLYESRNVNSVA	GASTRDS	QQYHRLPLS	0.18 / 0.52 / 0.11 / 0.17 / 0.15 / 0.57	0.28	2/18 (2.53)
KVSQSWLYESRNKNAVA	GASTRES	QQYHRLPLS	0.14 / -0.20 / -0.18 / -0.21 / -0.32 / -0.28	-0.18	0/18
KVSQSCLYESGTKNSVA	NASSRES	QQYHRLPLS	0.08 / -0.03 / -0.15 / 0.02 / 0.07 / 0.23	0.04	0/18
KSSQSVLYESGNKNSVA	QASTRED	QQYHRLPLS	0.23 / 0.19 / 0.20 / 0.23 / 0.28 / 0.42	0.26	0/18
KLSQSWLYESRNKNHVA	GASTREN	QQYHRLPLS	0.15 / 0.32 / 0.21 / -0.08 / 0.36 / -0.20	0.13	0/18
KSSISMLYESRNKNSVA	EASTRES	QQYHRLPLS	0.55 / 0.35 / 0.30 / 0.07 / 0.21 / 0.15	0.27	2/18 (2.51)
KSSQSYLGEKRNKNSVA	EASTRES	QQYHRLPLS	1.06 / 0.13 / 0.24 / 0.35 / -0.11 / 0.42	0.35	0/18
KSGCGVLYEDRNKNSVA	GASTRES	QQYHRLPLS	-0.43 / -0.49 / -0.23 / -0.68 / -0.29 / -0.29	-0.40	0/18
KLYISFLYESRNKNSVA	EASTRES	QQYHRLPLS	-0.11 / 0.43 / -0.24 / 0.48 / -0.17 / 0.06	0.07	0/18
HLSDSVLNESRNKNSVA	NASTRES	QQYHRLPLN	0.11 / 0.32 / 0.06 / 0.36 / 0.29 / 0.46	0.27	0/18
KVSQSFLYESRNKNAVA	GASTRES	QQYHRLTLS	-0.01 / 0.75 / -0.16 / 0.07 / -0.37 / 0.63	0.15	0/18
KSSWSVLYESNNKNSVA	HASTREP	QQYHRLPLS	2.04 / 1.70 / 2.13 / 2.20 / 1.23 / 2.85	2.03	3/18 (2.03)
KVGQGVLYESRNKNSVA	GASMRES	QQYHRLPLS	0.40 / 0.22 / 0.02 / 0.12 / 0.34 / 0.41	0.25	2/18 (2.98)
HSSPSVLYESRNHNSVA	NASTRES	QQYHRLPLS	0.23 / -0.04 / 0.09 / 0.07 / 0.14 / 0.23	0.12	1/18 (2.95)
KLSNSTLYESRQKNSVA	NASTRES	QQYHRLPLS	0.30 / 0.17 / -0.28 / -0.08 / -0.01 / 0.13	0.04	0/18
KFSQSVLFEWRNKNSVA	DASTRES	QQYHRLPLS	-0.11 / -0.39 / -0.38 / -0.34 / -0.35 / -0.09	-0.28	0/18
KSLQSVLYESRNKNSVA	NASTRED	QQYHRLPLS	0.72 / 0.54 / 0.63 / 0.61 / 0.53 / 0.75	0.63	2/18 (3.15)
KLRQSTLYESRNKNSVA	NASTRES	QQYHRLPLT	0.21 / -0.06 / -0.15 / 0.07 / -0.04 / 0.21	0.04	0/18
FSLQSVLMESRNFNSVA	HASTRED	QQYHRLPLS	nd / 1.23 / 2.05 / nd / 1.98 / 3.20	2.11	0/18
KSSTSYLYESRNTNSVA	EASTRES	QQYHRLPLS	3.07 / 1.27 / 2.57 / 2.15 / 1.91 / 1.43	2.07	0/18
KVSISYLTESRNKNSVA	EASTRES	QQYHRLPLS	0.54 / 0.99 / 0.34 / 0.59 / 0.67 / 1.04	0.70	1/18 (1.72)
KSGQEVLYESRNKNSVA	GASQRES	QQYHRLPLS	0.00 / 0.06 / -0.13 / -0.16 / -0.09 / 0.05	-0.04	4/18 (3.44)
KSSISYLYESRNLNSVA	EASTREQ	QQYHRLPLS	0.30 / 0.55 / 0.08 / 0.25 / 0.47 / 0.25	0.32	1/18 (1.87)
KSSQSELFESRNKNSVA	NASTRES	QQYHRLPLS	0.35 / 0.33 / 0.37 / 0.29 / 0.42 / 0.39	0.36	2/18 (2.71)
KVSQSWLMESRNKNSVA	EASTRVS	QQYHRLPLS	-0.14 / -0.10 / -0.28 / -0.27 / -0.16 / 0.01	-0.16	1/18 (4.51)
KFSQWWLYESRTKNSVA	NASTRES	QQYHRLPLS	0.62 / 0.32 / 0.39 / 0.47 / 0.67 / 0.33	0.47	2/18 (3.22)
KLSQSVLYESGNKNSVA	HASTRED	QQYHRLPLS	-0.13 / -0.16 / -0.29 / -0.38 / -0.35 / -0.05	-0.23	0/18
KFSQSVLYESRTQNSVA	NAVTRET	QQYHRLPLS	1.00 / 1.41 / 0.71 / 1.15 / 0.66 / 1.38	1.05	0/18
KSSQSFLYESRNKNSVA	GASTRES	QMYHRLTLS	nd / nd / nd / nd / nd / nd	nd	0/18
KSSISELYESMNKNSVA	NASTRES	QQYHRLPLS	1.09 / 0.65 / 0.92 / 1.17 / 0.98 / 0.92	0.96	1/18 (2.20)
KFSQSVLYESRAKNSVA	EASTRES	QQYHRLPLS	-0.24 / -0.24 / -0.34 / -0.49 / -0.53 / -0.39	-0.37	3/18 (2.34)
KLSISYLEESRNKNSVA	EASTRES	QQYHRLPLS	0.02 / 0.09 / -0.02 / -0.31 / -0.36 / 0.26	-0.05	2/18 (2.48)
KSMQGVLYESRNKNSVA	GASTRES	QQYHRLPLH	0.04 / 0.04 / 0.16 / -0.03 / -0.03 / 0.36	0.09	0/18
HSSPSVEYESRNKNSVA	NASWRES	QQYHRLPLS	0.72 / 0.32 / 0.93 / 0.54 / 0.88 / 0.24	0.60	2/18 (2.16)
KISQSWLYESRNFWSVA	GASTRES	QQYHRLPLS	0.65 / 0.45 / 0.35 / 0.47 / 0.52 / 0.39	0.47	1/18 (3.04)
KSSISWLGESRNKNSVA	EASTRES	QQYHRLPLS	-0.12 / 0.22 / -0.11 / -0.11 / -0.19 / -0.11	-0.07	0/18
KNSQSWLYESRNKNSVA	GASTRES	QQYHRLPLS	0.12 / -0.10 / -0.12 / -0.04 / 0.14 / 0.18	0.03	2/18 (2.62)
KSSISYLYESENKNSVA	AASLRES	QQYHRLPLS	0.96 / 1.98 / 3.05 / 1.73 / 1.06 / 1.26	1.67	0/18

The first 4 entries again:

CDR-L1	CDR-L2	CDR-L3	log10 Kd, replicates	log10 Kd (nM), mean	empty controls
KFSQSVLYESRNKNSVA	MASTRES	QAYHRLPLS	1.45 / 1.32 / 1.52 / 1.90 / 1.74 / 1.41	1.56	0/18
KLSQSELYESRWKNSVA	GASQRES	QQYHRLPLS	0.05 / 0.25 / 0.61 / 0.27 / 0.36 / 0.69	0.37	2/18 (4.03)
KSSQSGLYESRNVNSVA	GASTRDS	QQYHRLPLS	0.18 / 0.52 / 0.11 / 0.17 / 0.15 / 0.57	0.28	2/18 (2.53)
KVSQSWLYESRNKNAVA	GASTRES	QQYHRLPLS	0.14 / -0.20 / -0.18 / -0.21 / -0.32 / -0.28	-0.18	0/18